In general, pEC50 refers to the negative decadic logarithm of the EC50, by convention in mol/L.

Protein sequences, listed by entry. Tags and fused reporters are not part of them. Residues count along the entry.
UniProt P41594, 21-1180 isoform 2 limits assumed: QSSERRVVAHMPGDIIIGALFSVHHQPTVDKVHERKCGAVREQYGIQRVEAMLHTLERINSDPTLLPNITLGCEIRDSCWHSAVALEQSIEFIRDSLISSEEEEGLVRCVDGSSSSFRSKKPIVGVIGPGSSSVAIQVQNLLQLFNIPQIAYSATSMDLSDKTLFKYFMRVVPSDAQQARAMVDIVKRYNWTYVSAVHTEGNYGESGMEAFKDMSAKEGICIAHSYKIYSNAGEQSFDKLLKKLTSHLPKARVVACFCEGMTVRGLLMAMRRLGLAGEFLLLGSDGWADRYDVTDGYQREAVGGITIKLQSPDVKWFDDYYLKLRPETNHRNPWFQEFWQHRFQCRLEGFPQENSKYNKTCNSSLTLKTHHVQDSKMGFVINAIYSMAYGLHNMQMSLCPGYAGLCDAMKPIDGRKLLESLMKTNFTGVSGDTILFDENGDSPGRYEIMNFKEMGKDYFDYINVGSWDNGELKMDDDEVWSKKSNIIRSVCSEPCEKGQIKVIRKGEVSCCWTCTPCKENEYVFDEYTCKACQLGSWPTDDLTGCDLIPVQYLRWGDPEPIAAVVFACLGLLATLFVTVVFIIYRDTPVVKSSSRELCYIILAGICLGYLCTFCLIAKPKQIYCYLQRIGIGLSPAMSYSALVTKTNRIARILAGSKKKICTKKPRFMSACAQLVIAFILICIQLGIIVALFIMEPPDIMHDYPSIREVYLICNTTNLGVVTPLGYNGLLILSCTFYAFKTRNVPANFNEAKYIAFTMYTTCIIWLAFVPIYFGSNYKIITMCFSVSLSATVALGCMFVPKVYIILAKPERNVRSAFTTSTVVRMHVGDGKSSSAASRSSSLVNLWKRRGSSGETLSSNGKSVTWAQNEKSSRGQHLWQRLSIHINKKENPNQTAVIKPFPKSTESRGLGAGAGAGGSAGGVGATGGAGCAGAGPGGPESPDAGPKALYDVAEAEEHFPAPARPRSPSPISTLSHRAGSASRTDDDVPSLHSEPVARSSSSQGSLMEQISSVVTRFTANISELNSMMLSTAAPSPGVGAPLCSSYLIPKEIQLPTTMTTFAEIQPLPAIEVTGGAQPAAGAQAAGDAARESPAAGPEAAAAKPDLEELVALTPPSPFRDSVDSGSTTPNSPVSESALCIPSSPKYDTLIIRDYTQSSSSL

For this assay, the target named is human mGluR5 (Homo sapiens, UniProt P41594). The experiment in a line: Cell-based functional Ca2+ mobilization assay, potentiation of glutamate EC20 response (H10H cell-line). As to conditions: H10H cell-line expressing recombinant human mGluR5; for Emax (%): in presence of glutamate EC20, normalized to maximal glutamate response; for pEC50: potentiation in presence of glutamate EC20. Here is the method: Human embryonic kidney (HEK) cells transfected with rat mGluR5 were plated in clear bottom assay plates for assay in a Functional Drug Screening System (FDSS). In the alternative assay, HEK cells transfected with human mGluR5 were plated for assay in the FDSS. In some cases the HEK cells transfected with human mGluR5 are the H10H cell line. Alternatively, the HEK cells transfected with human mGluR5 are the H12H cell line. […] The cells were loaded with a Ca^2+-sensitive fluorescent dye (e.g., Fluo-4), and the plates were washed and placed in the FDSS instrument. After establishment of a fluorescence baseline for about three seconds, the compounds of the present invention were added to the cells, and the response in cells was measured. Five minutes later, an mGluR5 agonist (e.g., glutamate, 3,5-dihydroxyphenylglycine, or quisqualate) was added to the cells, and the response of the cells was measured. Potentiation of the agonist response of mGluR5 by the compounds in the present invention was observed as an increase in response to non-maximal concentrations of agonist (here, glutamate) in the presence of compound compared to the response to agonist in the absence of compound.
The above described assay can be operated in two modes. In the first mode, a range of concentrations of the present compounds were added to cells, followed by a single fixed concentration of agonist. If a compound acted as a potentiator, an EC50 value for potentiation and a maximum extent of potentiation by the compound at this concentration of agonist was determined by non-linear curve fitting. In the second mode, several fixed concentrations of the present compounds were added to various wells on a plate, followed by a range of concentrations of agonist for each concentration of present compound; the EC50 values for the agonist at each concentration of compound were determined by non-linear curve fitting. A decrease in the EC50 value of the agonist with increasing concentrations of the present compounds (a leftward shift of the agonist concentration-response curve) is an indication of the degree of mGluR5 potentiation at a given concentration of the present compound. An increase in the EC50 value of the agonist with increasing concentrations of the present compounds (a rightward shift of the agonist concentration-response curve) is an indication of the degree of mGluR5 antagonism at a given concentration of the present compound. The second mode also indicates whether the present compounds also affect the maximum response to mGluR5 to agonists.
Human mGluR5a cDNA in pCMV6-XL6 mammalian expression plasmid was purchased from OriGene Technologies, Inc. (catalogue number SC326357) and subcloned into pcDNA3.1(−). Human embryonic kidney (HEK) 293A cells were then transfected with human mGluR5a pcDNA3.1(−) using LipofectAmine 2000 (Invitrogen) and monoclones were selected and tested for functional response using a Ca^2+ mobilization assay. Monoclones were named for the species (“H” for human) plus the location on the plate (e.g. “10H”).
HEK cells transfected with the human mGluR5a receptor were plated at 15,000 cells/well in clear-bottomed poly-D-lysine-coated assay plates (BD Falcon) in glutamate-glutamine-free growth medium and incubated overnight at 37° C. and 5% CO2. The cell-line used to obtain the data reported herein was the H10H cell-line expressing the human mGluR5 receptor. Although the H10H cell-line was used to obtain the data shown herein, the H12H cell-line expressing the human mGluR5 receptor can also be used in these assays. The following day, the growth medium was removed and the cells were washed with assay buffer containing 1× Hank's balanced salt solution (Invitrogen, Carlsbad, Calif.), 20 mM HEPES, 2.5 mM probenecid, pH 7.4 and left with 20 μL of this reagent. Following this step, the cells were loaded with calcium indicator dye, fluo-4 AM, to a final concentration of 2 μM and incubated for 40-45 min at 37° C. […]

As to `Cc1cc(C)c(C(=O)N2CCc3nc(COc4ccccc4)oc3C2)o1`, the “Emax (%)” value is reported as 45% and the pEC50 is 6.77.

As for `CCc1ccc(C(=O)N2CCc3nc(COc4ccccc4)oc3C2)o1`, the “Emax (%)” value is listed as 56% and the pEC50 was determined as 6.37.

`Cn1cc(C(=O)N2CCc3nc(COc4ccccc4)oc3C2)c2ccccc21`: the “Emax (%)” value is 70% and the pEC50 amounted to 6.54.

In the case of `O=C(c1ccc(F)cc1)N1CCc2nc(COc3cncnc3)oc2C1`, the “Emax (%)” value was determined as 28% and the pEC50 is reported as <5.

The values above are taken from patent publication US9090632B2, “Bicyclic oxazole and thiazole compounds and their use as allosteric modulators of mGluR5 receptors” (Vanderbilt University, priority 2010, dated 2015).
